Test [1] addresses B. taurus (heart) complex I (Bos taurus, UniProt P03887+P17694+P42026). It counts as biochemical. As to conditions: heart mitochondria.
The test system of test [2] is L1 wild-type C. elegans. As to conditions: for Relative Motility: relative to DMSO controls, single biological replicate.
Setting [3] is: 50 μM compound, worm motility 3 hours after removal of KCN.
Setting [4] is: 50 μM, worm motility 3 hours after the removal of KCN (endpoint).
Setting [5] is: 50 μM, worm motility 3 hours after removal of KCN.

Chains of the proteins cited; added tags and fusions are not shown. Residues count along the entry.
UniProt P03887, whole entry: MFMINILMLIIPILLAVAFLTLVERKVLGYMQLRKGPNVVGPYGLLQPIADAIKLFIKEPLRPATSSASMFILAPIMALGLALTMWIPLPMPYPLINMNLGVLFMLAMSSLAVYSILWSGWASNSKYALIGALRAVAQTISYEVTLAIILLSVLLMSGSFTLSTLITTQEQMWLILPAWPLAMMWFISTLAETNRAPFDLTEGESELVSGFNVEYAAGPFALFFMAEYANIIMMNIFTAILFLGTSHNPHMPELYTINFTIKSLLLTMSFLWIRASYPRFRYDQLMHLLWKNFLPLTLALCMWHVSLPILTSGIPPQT
UniProt P17694, 34-463: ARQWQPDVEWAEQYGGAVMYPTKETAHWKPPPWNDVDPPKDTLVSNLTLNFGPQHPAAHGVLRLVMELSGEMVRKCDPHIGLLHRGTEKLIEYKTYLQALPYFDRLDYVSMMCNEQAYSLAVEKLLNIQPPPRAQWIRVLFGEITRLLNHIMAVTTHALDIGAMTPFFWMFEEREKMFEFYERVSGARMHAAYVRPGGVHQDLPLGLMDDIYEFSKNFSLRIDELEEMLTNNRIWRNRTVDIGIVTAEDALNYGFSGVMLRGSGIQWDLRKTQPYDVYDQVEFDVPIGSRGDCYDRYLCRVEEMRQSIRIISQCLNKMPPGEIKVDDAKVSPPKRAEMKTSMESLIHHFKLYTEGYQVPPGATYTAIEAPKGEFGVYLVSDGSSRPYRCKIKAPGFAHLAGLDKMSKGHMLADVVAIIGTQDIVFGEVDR
UniProt P42026, 38-216: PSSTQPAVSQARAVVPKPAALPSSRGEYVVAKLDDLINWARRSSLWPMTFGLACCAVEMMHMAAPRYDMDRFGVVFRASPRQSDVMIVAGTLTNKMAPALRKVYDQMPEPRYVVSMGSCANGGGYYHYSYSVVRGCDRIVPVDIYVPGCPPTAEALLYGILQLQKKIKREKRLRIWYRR

Each structure is given as a SMILES string. Read-outs that look alike come from different tables or passages of the source.

Turning to `Cc1nc2ccccc2n1Cc1ccc(C(C)(C)C)cc1` [Compound 5521938], in test [1], the “B. taurus: C. elegans IC50 Fold Change (Complex I IC50 ~Fold Change)” value (“B. taurus: C. elegans IC50 Fold Change” for short) was determined as 0.46, the “Complex I IC50 ~Fold Change” value was 0.46 and the “IC50 Fold change” value worked out at 0.46. Moreover, in test [2] (setting [3]), the “Relative Motility” value is recorded as 0.215.
Consider `Brc1ccc(Cn2cnc3ccccc32)cc1` [Compound 5542661], for which, in test [1], the “B. taurus: C. elegans IC50 Fold Change” value turned out to be 6.32, the “Complex I IC50 ~Fold Change” value is 6.32 and the “IC50 Fold change” value is 6.32. In addition, the “Relative Motility” value in test [2] (setting [4]) stood at 0.150.
`Cc1nc2ccccc2n1CCOc1ccccc1` [Compound 5550112]: in test [1], the “Complex I IC50 ~Fold Change” value was determined as 1.7 and the “IC50 Fold change” value is reported as 1.70. In addition, in test [2] (setting [5]), the “Relative Motility” value is listed as 0.200.
`Cc1nc2ccccc2n1CCOc1ccccc1Cl` [Compound 5561642]: in test [1], the “Complex I IC50 ~Fold Change” value came out at 3.43 and the “IC50 Fold change” value was found to be 3.43. The “Relative Motility” value in test [2] (setting [5]) is recorded as 0.220. The “C. elegans KCN Survival” value in test [2] (Dose 100 µM) was found to be 0.343.
Consider `Clc1ccc(Cn2cnc3ccccc32)cc1Cl` [Compound 5571325], for which, in test [1], the “B. taurus: C. elegans IC50 Fold Change” value was 2.62, the “Complex I IC50 ~Fold Change” value was found to be 2.62 and the “IC50 Fold change” value came out at 2.62. Besides, the “Relative Motility” value in test [2] (setting [4]) amounted to 0.150.
Consider `Cc1ccc(Cn2c(C)nc3ccccc32)cc1` [Compound 5651984], for which, in test [1], the “B. taurus: C. elegans IC50 Fold Change” value came out at 5.5, the “Complex I IC50 ~Fold Change” value is on record as 5.5 and the “IC50 Fold change” value is 5.50. Besides, the “Relative Motility” value in test [2] (setting [4]) is 0.170.
Take `Nc1nc2ccccc2n1Cc1ccc(Cl)cc1` [Compound 5652765]: in test [1], the “B. taurus: C. elegans IC50 Fold Change” value stood at 4.83, the “Complex I IC50 ~Fold Change” value was found to be 4.83 and the “IC50 Fold change” value is 4.83. Further, in test [2] (setting [4]), the “Relative Motility” value came to 0.160.
For the compound `Cc1nc2ccccc2n1Cc1ccc(Cl)c(Cl)c1` [Compound 5655567], in test [1], the “B. taurus: C. elegans IC50 Fold Change” value is listed as 2.49, the “Complex I IC50 ~Fold Change” value worked out at 2.49 and the “IC50 Fold change” value is 2.49. Moreover, the “Relative Motility” value in test [2] (setting [4]) amounted to 0.100.
Take `Cc1ccc(OCCn2cnc3ccccc32)cc1` [Compound 5671538]: in test [1], the “Complex I IC50 ~Fold Change” value amounted to 3.26 and the “IC50 Fold change” value is 3.26. The “Relative Motility” value in test [2] (setting [5]) is recorded as 0.092.
Take `Nc1nc2ccccc2n1CCOc1ccc(Br)cc1` [Compound 5842535]: in test [1], the “Complex I IC50 ~Fold Change” value is on record as 2.05 and the “IC50 Fold change” value is listed as 2.05. Further, in test [2] (setting [5]), the “Relative Motility” value was 0.130.
With `Cc1ccc(C(C)C)c(OCC(O)Cn2cnc3ccccc32)c1` (centres unmarked) [Compound 6093301], in test [1], the “Complex I IC50 ~Fold Change” value is 5.75 and the “IC50 Fold change” value was 5.75.
With `Cc1cccc(OCCn2c(C)nc3ccccc32)c1` [Compound 6285199], in test [1], the “Complex I IC50 ~Fold Change” value came to 5.91 and the “IC50 Fold change” value turned out to be 5.91. In test [2] (setting [5]), the “Relative Motility” value is 0.140.
In the case of `Cc1ccc(Cn2c(C(C)C)nc3ccccc32)cc1` [Compound 6586153], in test [1], the “B. taurus: C. elegans IC50 Fold Change” value was found to be 6.11, the “Complex I IC50 ~Fold Change” value worked out at 6.11 and the “IC50 Fold change” value is recorded as 6.11. In addition, the “Relative Motility” value in test [2] (setting [4]) turned out to be 0.068.
`Cc1nc2ccccc2n1Cc1ccccc1Cl` [Compound 6707368]: in test [1], the “B. taurus: C. elegans IC50 Fold Change” value came to 7.07, the “Complex I IC50 ~Fold Change” value was 7.07 and the “IC50 Fold change” value is 7.07. Further, the “Relative Motility” value in test [2] (setting [4]) is reported as 0.070.
On to `Clc1ccc(Cn2cnc3ccccc32)c(Cl)c1` [Compound 6750659], for which, in test [1], the “B. taurus: C. elegans IC50 Fold Change” value is listed as 5.78, the “Complex I IC50 ~Fold Change” value turned out to be 5.78 and the “IC50 Fold change” value came out at 5.78. For the same compound, the “Relative Motility” value in test [2] (setting [4]) was 0.093.
With `C=CCn1c(-c2ccc(N(C)C)cc2)nc2ccccc21` [Compound 6873298], in test [1], the “Complex I IC50 ~Fold Change” value was 1.59 and the “IC50 Fold change” value stood at 1.59. Also, in test [2] (setting [4]), the “Relative Motility” value worked out at 0.140.
On to `Clc1ccc(OCCn2cnc3ccccc32)c(Cl)c1` [Compound 7221649], for which, in test [1], the “Complex I IC50 ~Fold Change” value came out at 2.52 and the “IC50 Fold change” value amounted to 2.52. Further, the “Relative Motility” value in test [2] (setting [5]) amounted to 0.100.
In the case of `Nc1nc2ccccc2n1Cc1ccc(Br)cc1` [Compound 7313068], in test [1], the “B. taurus: C. elegans IC50 Fold Change” value is on record as 3.85, the “Complex I IC50 ~Fold Change” value is given as 3.85 and the “IC50 Fold change” value is given as 3.85. Besides, in test [2] (setting [4]), the “Relative Motility” value is 0.180.
With `Cc1nc2ccccc2n1Cc1ccc(C(C)C)cc1` [Compound 7353551], in test [1], the “B. taurus: C. elegans IC50 Fold Change” value is 3.65, the “Complex I IC50 ~Fold Change” value is 3.65 and the “IC50 Fold change” value was found to be 3.65. Besides, the “Relative Motility” value in test [2] (setting [3]) is 0.232.
Take `CCCOc1ccc(Cn2cnc3ccccc32)cc1` [Compound 7355741]: in test [1], the “B. taurus: C. elegans IC50 Fold Change” value is listed as 4.95, the “Complex I IC50 ~Fold Change” value is listed as 4.95 and the “IC50 Fold change” value was 4.95. The “Relative Motility” value in test [2] (setting [4]) was found to be 0.130.
As to `Cc1nc2ccccc2n1Cc1ccc(F)cc1` [Compound 7360886], in test [1], the “B. taurus: C. elegans IC50 Fold Change” value is on record as 4.88, the “Complex I IC50 ~Fold Change” value is on record as 4.88 and the “IC50 Fold change” value is 4.88. In addition, the “Relative Motility” value in test [2] (setting [3]) was determined as 0.229.
Take `Cc1ccc(OCCn2cnc3ccccc32)c(C)c1` [Compound 7706808]: in test [1], the “Complex I IC50 ~Fold Change” value is recorded as 5.84 and the “IC50 Fold change” value turned out to be 5.84. Further, in test [2] (setting [5]), the “Relative Motility” value is 0.160.
For `Nc1nc2ccccc2n1CCCOc1ccccc1` [Compound 7915320], in test [1], the “Complex I IC50 ~Fold Change” value was 2.35 and the “IC50 Fold change” value was determined as 2.35.
For `Cc1ccccc1OCCCn1c(C)nc2ccccc21` [Compound 7916923], in test [1], the “Complex I IC50 ~Fold Change” value turned out to be 5.7 and the “IC50 Fold change” value is given as 5.70. Also, the “Relative Motility” value in test [2] (setting [5]) is recorded as 0.051.
As to `FC(F)(F)c1cccc(OCCCCn2cnc3ccccc32)c1` [Compound 7925004], in test [1], the “B. taurus: C. elegans IC50 Fold Change” value stood at 6.29, the “Complex I IC50 ~Fold Change” value turned out to be 6.29 and the “IC50 Fold change” value is listed as 6.29. Further, in test [2] (setting [4]), the “Relative Motility” value was 0.180.
Consider `CCc1cc(OCCn2cnc3ccccc32)ccc1Cl` [Compound 7925288], for which, in test [1], the “Complex I IC50 ~Fold Change” value worked out at 0.7 and the “IC50 Fold change” value was found to be 0.70. The “Relative Motility” value in test [2] (setting [5]) amounted to 0.100.
In the case of `Cc1ccc(SCCCCn2cnc3ccccc32)cc1` [Compound 7925333], in test [1], the “B. taurus: C. elegans IC50 Fold Change” value is given as 7.02, the “Complex I IC50 ~Fold Change” value came out at 7.02 and the “IC50 Fold change” value is recorded as 7.02. Also, the “Relative Motility” value in test [2] (setting [4]) came to 0.130. Besides, in test [2] (Dose 0.78 µM), the “C. elegans KCN Survival” value was 0.965.
As for `Clc1ccc(SCCCCn2cnc3ccccc32)cc1` [Compound 7925515], in test [1], the “B. taurus: C. elegans IC50 Fold Change” value is reported as 8.44, the “Complex I IC50 ~Fold Change” value turned out to be 8.44 and the “IC50 Fold change” value is 8.44. The “Relative Motility” value in test [2] (setting [4]) turned out to be 0.082.
Turning to `Cc1nn(C)c(Oc2ccccc2)c1C=NOCc1ccc(C(=O)OC(C)(C)C)cc1` [Fenpyroximate, reference compound], the “B. taurus: C. elegans IC50 Fold Change” value in test [1] turned out to be 2.3.

Source of the values: paper PMC11079024, “Identification of a family of species-selective complex I inhibitors as potential anthelmintics” (Nature Communications, 2024).
